## Yeast mating assay B: variants of the scFv Ab-14

Target: peptide PDVDLGDISGINAS, taken from heptad repeat 2 (HR2) of SARS-CoV-2 spike.

Parent: Ab-14, a human scFv built as VH, a 15-residue (Gly4Ser)3 linker, VL. Only the CDRs of the light chain vary.
VH: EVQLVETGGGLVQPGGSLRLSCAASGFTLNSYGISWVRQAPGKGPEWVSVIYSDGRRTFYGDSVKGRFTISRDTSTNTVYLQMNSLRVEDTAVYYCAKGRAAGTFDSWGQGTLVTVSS
VL: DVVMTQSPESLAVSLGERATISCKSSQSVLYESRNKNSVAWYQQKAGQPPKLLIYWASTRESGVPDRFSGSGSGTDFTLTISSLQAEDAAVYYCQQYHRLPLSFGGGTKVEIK

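These sequences belong to a second round, designed from the earlier measurements on random variants of the parent. Their group label is 14L_Ctrl (Ctrl: baseline library sampled from a position-specific scoring matrix, with some repeated check sequences). In AlphaSeq, yeast of one mating type display the scFv and yeast of the other type display the target. The frequency of each diploid, read from paired DNA barcodes, reflects how well the two displayed proteins bind. A regression on co-assayed BCL2-family reference pairs converts the normalised counts of each replicate to an apparent Kd. The assay was run in six technical replicates.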

Changes read parent residue, position, new residue, counted from the first residue of the VL shown.
Values are log10 of the apparent Kd in nM; lower means stronger binding.
A mean of the replicates is given; it leaves out those without a signal.
An entry "nd" has no value in the source: the pair was not observed among the diploids in that replicate. This suggests poor binding but is not conclusive.
The parent sequence was in this pool as ten entries: three were never detected, three once, and four in most replicates, with averages from 0.34 to 2.37.

{"changes": "R34F+S58T+Q96T", "log10 Kd, replicates": "nd 3.23 1.97 nd 3.28 nd", "log10 Kd (nM), mean": "2.83", "control signals": "0/18"}
{"changes": "K24R+Y31D", "log10 Kd, replicates": "0.78 0.79 1.21 1.22 2.50 0.90", "log10 Kd (nM), mean": "1.23", "control signals": "0/18"}
{"changes": "W56N+S62I+S103H", "log10 Kd, replicates": "nd nd nd nd nd nd", "log10 Kd (nM), mean": "nd", "control signals": "1/18 (0.57)"}
{"changes": "E61S", "log10 Kd, replicates": "2.30 1.22 1.50 1.51 1.15 1.41", "log10 Kd (nM), mean": "1.52", "control signals": "0/18"}
{"changes": "S26V+Q27M+W56K", "log10 Kd, replicates": "nd 0.24 0.02 nd nd 0.72", "log10 Kd (nM), mean": "0.33", "control signals": "0/18"}
{"changes": "S25L+L30E+R99Y", "log10 Kd, replicates": "2.37 nd nd 3.11 3.35 3.32", "log10 Kd (nM), mean": "3.04", "control signals": "1/18 (1.66)"}
{"changes": "L30P+W56Q+S62L+H98A+S103A", "log10 Kd, replicates": "0.48 0.59 0.46 0.45 0.31 0.46", "log10 Kd (nM), mean": "0.46", "control signals": "3/18 (2.89)"}
{"changes": "N37D", "log10 Kd, replicates": "3.42 3.83 nd 0.93 nd nd", "log10 Kd (nM), mean": "2.73", "control signals": "1/18 (0.86)"}
{"changes": "S26N+K36Y+N37T", "log10 Kd, replicates": "nd nd nd 2.59 nd nd", "log10 Kd (nM), mean": "2.59", "control signals": "0/18"}
{"changes": "S26G+S28G+E32D+S38N+W56E+T59E", "log10 Kd, replicates": "-0.16 -0.30 -0.34 -0.31 -0.39 -0.09", "log10 Kd (nM), mean": "-0.26", "control signals": "0/18"}
{"changes": "S33D+R99I", "log10 Kd, replicates": "2.12 1.16 1.82 nd 1.80 1.24", "log10 Kd (nM), mean": "1.63", "control signals": "0/18"}
{"changes": "L100Y", "log10 Kd, replicates": "nd nd nd nd nd nd", "log10 Kd (nM), mean": "nd", "control signals": "1/18 (2.60)"}
{"changes": "S33L+Y97K+H98G", "log10 Kd, replicates": "2.77 2.62 nd nd 2.82 nd", "log10 Kd (nM), mean": "2.73", "control signals": "1/18 (3.56)"}
{"changes": "N37K+S62F", "log10 Kd, replicates": "nd nd 2.47 2.61 1.64 nd", "log10 Kd (nM), mean": "2.24", "control signals": "0/18"}
{"changes": "S33A+W56E", "log10 Kd, replicates": "0.52 0.10 0.59 0.17 0.34 0.30", "log10 Kd (nM), mean": "0.34", "control signals": "0/18"}
{"changes": "L30P+Y31F+E32S+W56T+A57R", "log10 Kd, replicates": "nd nd nd nd nd nd", "log10 Kd (nM), mean": "nd", "control signals": "0/18"}
{"changes": "Y31M+R34Y+R60G+Y97A", "log10 Kd, replicates": "nd nd nd nd nd nd", "log10 Kd (nM), mean": "nd", "control signals": "0/18"}
{"changes": "S28D+Y31S+W56H+L100M", "log10 Kd, replicates": "0.84 0.72 0.38 0.30 0.65 0.50", "log10 Kd (nM), mean": "0.56", "control signals": "2/18 (2.51)"}
{"changes": "W56S+Q96C+R99V", "log10 Kd, replicates": "2.87 2.66 2.67 2.66 2.16 2.66", "log10 Kd (nM), mean": "2.61", "control signals": "2/18 (2.43)"}
{"changes": "R34Q+S38I+W56E", "log10 Kd, replicates": "nd 2.31 nd 1.15 nd nd", "log10 Kd (nM), mean": "1.73", "control signals": "0/18"}

2 of these entries, quoted again:

{"changes": "L100Y", "log10 Kd, replicates": "nd nd nd nd nd nd", "log10 Kd (nM), mean": "nd", "control signals": "1/18 (2.60)"}
{"changes": "E61S", "log10 Kd, replicates": "2.30 1.22 1.50 1.51 1.15 1.41", "log10 Kd (nM), mean": "1.52", "control signals": "0/18"}

In the paper, a design with two or fewer of six values counts as a poor binder.
Three control strains display no target. For all light chain designs, 4% of the pairings with them gave a signal, with a median of 2.64 and one signal in twenty below 1.59, so weak values seen in few replicates may be background. For each scFv, signals with the empty controls are counted beside the result, with their mean in brackets.
A sequence measured in both rounds can read differently, since the two assays cover different ranges.

From the AlphaSeq antibody data of Li et al. 2023 (doi:10.1038/s41467-023-39022-2), copy in the FLAb collection.